# Source: patent publication US12383579B2, “Materials and methods of using an inhibitor of plasminogen activation to treat anastomotic leak” (THE UNIVERSITY OF CHICAGO, priority 2018, dated 2025)
# Test system: E. faecalis V583-induced AL
# Details: non-leaking mice, TXA versus vehicle, POD 8
smiles,measurement,value
"NC[C@H]1CC[C@H](C(=O)O)CC1 [TXA, tranexamic acid]","hematoxylin and eosin staining: mucosal healing, inflammatory infiltrate",no discernible difference in mucosal healing or inflammatory infiltrate
